Experimental data: paper PMC8720280

Assays:
Experiment in all cases: BLI
Tiga = conditions: fit R^2 0.9770
KMTR2 = conditions: fit R^2 0.984
AMG655 = conditions: fit R^2 0.9870

koff (Tiga): 0.000226 s⁻¹
koff (KMTR2): 1.61e-05 s⁻¹
kon (KMTR2): 509000 M⁻¹ s⁻¹
kon (AMG655): 604000 M⁻¹ s⁻¹
Substance: WT DR5 recombinant protein (IgG4-Fc tagged extracellular domain of human DR5) (from UniProt O14763-1) E98A; M99A
